# Data from PubChem BioAssay AID624168 (Sanford-Burnham Center for Chemical Genomics, 2012).
# The entries are a selection whose mix differs from that of the whole data set. Activity calls are given as the source filed them.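 Rule for the calls: active = activation of at least 8% versus controls, or a plate z-score of at least 8; inactive = the rest.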
# Assay: activators of alpha-DG glycosylation, primary screen, uHTS, Pro5-aDG cells, AlphaScreen (AID 624168);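 note: Pro5 are CHO cells carrying HIG-tagged alpha-DG that lacks glycosylation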
# Conditions: alpha-DG glycosylation AlphaScreen (IIH6), at 10 µM, stronger effect = higher value, 0% Pro5, 100% B10-LARGE cell signal
row,SMILES,activation
1,CCC(=O)N(c1ccccc1)C1(COC)CCN(CCc2cccs2)CC1,inactive: -0.3%
2,CCC(=O)N(c1ccccc1)C1(COC)CCN(CCn2nnn(CC)c2=O)CC1,inactive: 0%
